This note sets out measurements from ChEMBL document CHEMBL2331221, “Potent elastase inhibitors from cyanobacteria: structural basis and mechanisms mediating cytoprotective and anti-inflammatory effects in bronchial epithelial cells” (J Med Chem, 2013).

The assay has as its target T1, Neutrophil elastase (Homo sapiens, UniProt P08246).
T1 sequence (P08246 whole entry): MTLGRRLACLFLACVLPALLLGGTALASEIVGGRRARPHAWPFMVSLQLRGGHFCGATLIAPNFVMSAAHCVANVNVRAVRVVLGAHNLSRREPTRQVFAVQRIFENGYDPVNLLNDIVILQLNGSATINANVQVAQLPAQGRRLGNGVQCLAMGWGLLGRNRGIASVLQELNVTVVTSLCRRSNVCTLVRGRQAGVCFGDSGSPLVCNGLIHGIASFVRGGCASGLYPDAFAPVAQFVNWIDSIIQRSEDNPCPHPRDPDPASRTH
Kind of assay: Inhibition of human neutrophil elastase assessed as proteolysis using N-(methoxysuccinyl)-Ala-Ala-Pro-Val-p-nitroanilide substrate incubated for 15 mins prior to substrate addition measured every 30 seconds.

Turning to `CC(C)(C)C(=O)Oc1ccc(S(=O)(=O)Nc2ccccc2C(=O)NCC(=O)O)cc1`, the IC50 – broadly, the midpoint of a concentration-inhibition curve – was 136 nM.
